This data set has as its system paddy rice. The experiment in a line: Test Example 3: degree of phytotoxicity on paddy rice (injury rating). Conditions: Table 4, spray liquid 65 ppm.

The substance Ammonium iron methanearsonate came in with a Degree of phytotoxicity of 0.

Source of the values: patent EP0032748B1, “Thiophene derivatives” (UBE INDUSTRIES, LTD., priority 1980, dated 1981).
